The text below walks through data of patent US20110117588A1, “METHOD OF PREDICTING DRUG-INDUCED PHOSPHOLIPIDOSIS” (KYUSHU UNIVERSITY, NATIONAL UNIVERSITY CORPORATION, priority 2007, published 2011).

Data set [1] deals with NRK cells. The data set is described as follows: β-hexosaminidase activity in the medium after exposure of NRK cells. The conditions noted are these: 24 hr exposure, result in words.
The test system of data set [2] is NRK cells. The data set is described as follows: Localization of MPR in NRK cells by confocal laser microscope with antibody. The conditions noted are these: 24 hr exposure, result in words.

In the case of gentamicin, the β-hex activity increase entry in the data set with NRK cells [1] was “none”. Besides, the “alteration of MPR localization” value in the data set with NRK cells [2] was “none”.
